Data on one compound can be found in US20100256233A1, “SYSTEMS, METHODS AND COMPOSITIONS FOR REDUCTION OF INJURY FROM RADIATION EXPOSURE” (priority 2007, published 2010).

Entries after “also recorded” stand apart in the source; their conditions may differ.

Assay [1] has as its system bone marrow stem cells. Kind of assay: Spleen colony-forming assay after sublethal TBI. It counts as in vivo, BALB/c mice. The conditions noted are these: 5.5 Gy TBI, 400 mg/kg i.p. 1 h after X rays, 12 days after irradiation, P<0.001. The protocol:
Twelve days after exposure to 5.5 Gy alone or in combination with either valproic acid (400 mg/kg administered i.p. 1 h after radiation exposure) or trichostatin A (0.5 mg/kg i.p. administered 1 h after radiation exposure), mice were anesthetized with ketamine (100 mg/kg) and xylazine (10 mg/kg) for blood collection. Blood (0.5 ml) obtained by cardiac puncture with a 25-gauge needle was placed into heparinized anticoagulant tubes and shipped to ANTECH Diagnostics (Alsip, Ill.) for analysis of red and white blood cell counts using their CBC differential small mammalian protocol. The same mice were used for the spleen colony-forming assay.
The numbers of spleen colony-forming units were measured to assess the in vivo effect of HDACi on bone marrow cell survival. Groups of BALB/c mice were exposed to 5.5 Gy alone or in combination with HDACi as described. Spleens were excised and examined for colony formation 12 days after the sublethal TBI using a dissecting microscope.
The effect of HDAC inhibition on the survival of bone marrow stem cells was assayed using a variant of the spleen colony assay of Till and McCulloch in which endogenous nodules on the spleens of mice are counted after a sublethal dose of TBI (4-6). FIG. 2 illustrates the results.

The subject of assay [2] is acetylation of histone H3. Kind of assay: Western blot of acetylated histones in bone marrow after HDACi administration (HDACi activity). It counts as in vivo, mouse. The conditions noted are these: 10 h after first dose and 5 h after second dose, s.c., TSA 0.5 + 0.5 mg/kg, VPA 600 + 300 mg/kg. As for the experimental part: Western blot analyses were used to confirm the activity of VPA and TSA. Histone H3 and H4 acetylation activity of fresh mouse spleen and bone marrow after administration of VPA or TSA was measured by Western blot analyses ex vivo. Mice were administered two doses of HDAC inhibitors subcutaneously, one dose at 0 h (TSA, 0.5 mg/kg; VPA, 600 mg/kg) and one dose at 5 h (TSA, 0.5 mg/kg; VPA, 300 mg/kg). […] or spleens were harvested at 10 h.
VPA is a class I HDAC inhibitor and is expected to increase acetylation of histone H3. TSA is not selective and is expected to increase acetylation of histones non-specifically. FIG. 1 is a graph showing the acetylation of histone H3 relative to a beta-actin control in test samples. […] Bars indicate individual mice. These studies established that both TSA and VPA acetylated histones in our model at the doses used.

In assay [3] the test system is BALB/c mice. Put plainly: Lethality / survival after total-body irradiation (TBI). It counts as in vivo. The conditions noted are these: for ED50 (time at which 50% of mice were dead): 7 Gy alone 13 days; for median survival: without VPA 12 days; for time to 50% lethality: 7 Gy alone day 13. The protocol:
All studies were performed with prior approval and in accordance with institutional and national standards of animal care. The studies were approved by an Institutional Animal Care and Use Committee (“IACUC”) and were performed in an accredited AAALAC facility. Male BALB/c mice (Charles River Laboratories) 8 to 10 weeks old were allowed to acclimate for 1 week prior to the start of the study. Mice were maintained in environment-controlled (temperature and lighting) animal facilities, provided food and water ad libitum, and randomly assigned to experimental groups.
TBI was delivered using a 185 TBq (5000 Ci) ^137Cs source (Mark I, J. L. Shepherd and Associates, San Fernando, Calif.). Doses ranged from sublethal exposures of 5.5 Gy to lethal exposures of 6.5 Gy and a supralethal exposure of 7.0 Gy. The dose rate was approximately 1 Gy per minute.
Survival was measured in mice after TBI with and without HDACi. Groups of mice were exposed to 6.5 or 7.0 Gy alone or in combination with HDACi, as described above. Survival was defined as the time from irradiation to the time of euthanasia, which occurred when animals had lost 20% or more of their body weight.

As for `CCCC(CCC)C(=O)O` [VPA, valproic acid], the “number of spleen colonies vs mice exposed to 5.5 Gy alone” value in assay [1] is given as “sevenfold higher”. In assay [2], the “increase in acetylated form of histone H3 relative to the beta-actin control” value is on record as “three to four-fold increase”. Moreover, the survival in assay [3] (6.5 Gy TBI, VPA 600 mg/kg 24 h before, n=4) is recorded as 100%; in assay [3] (6.5 Gy TBI, VPA 600 mg/kg 24 h before, one-sided logrank P<0.05), “increased survival significantly”; in assay [3] (7.0 Gy TBI, VPA 600 mg/kg 1 h after, P<0.0001), “increased survival significantly”; in assay [3] (7.0 Gy TBI, VPA 600 mg/kg 24 h before, P<0.0001) it was “increased survival significantly”; in assay [3] (7 Gy TBI, VPA 1 h after TBI, dose of at least 400 mg/kg), “increased survival”; in assay [3] (7 Gy TBI, VPA single dose 200 mg/kg, 200 mg/kg), “not effective; also recorded: yielded no benefit”. Also, the survival entry in assay [3] (VPA given 1 h before radiation exposure (data not shown)) is “survival was not increased”; in assay [3] (whole-body radiation 5.5 to 7.0 Gy, VPA 400 or 600 mg/kg before or after TBI), “increase in survival”. For the same compound, in assay [3] (6.5 Gy TBI, VPA one day before radiation exposure (FIG. 3)), the “deaths after TBI” value is given as “no mice died”. Besides, the “survival time relative to TBI alone” value in assay [3] (7 Gy TBI, VPA 400 mg/kg 1 h after (FIG. 6)) was “increase in survival”; in assay [3] (7 Gy TBI, VPA 400 mg/kg 4 h after (FIG. 6)), “increase in survival”; in assay [3] (7 Gy TBI, VPA 400 mg/kg 24 h before (FIG. 6)), “increase in survival”. Besides, the “ED50 (time at which 50% of mice were dead)” value in assay [3] (7 Gy TBI, VPA 400 mg/kg 1 h after, n=12) turned out to be 26.5 days; in assay [3] (7 Gy TBI, VPA 400 mg/kg 24 h before, n=17), 17 days. Moreover, the median survival in assay [3] (7 Gy TBI, VPA 400 mg/kg) is listed as 14 days; in assay [3] (7 Gy TBI, VPA 600 mg/kg), 17 days. The “fraction of mice surviving for at least 2 months” value in assay [3] (7 Gy TBI, VPA 400 or 600 mg/kg) is “about half”. The “time to 50% lethality” value in assay [3] (7 Gy TBI, VPA 1 hour after radiation (FIG. 4)) worked out at 23 days; in assay [3] (7 Gy TBI, VPA given 1 day before TBI (FIG. 4)), 17 days. Also, in assay [3] (after TBI), the “lethality (time for mice to lose 20% or more of their weight)” value is “reduce lethality in a dose-dependent manner”.
